Assay: Half life in MRP2 knockout Sprague-Dawley rat at 1 mg/kg, iv by LC-MS/MS analysis
Format: ADME, organism-based
Set-up: dose 1 mg/kg, route intravenous
Conditions: in vivo
In short: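 Male Sprague-Dawley rats (knockout or wild type matched for age and weight), femoral artery and vein cannulated, at least 2 days recovery. Crossover design: IV bolus 1 mg/kg on day 0 (saline with 0.2 M equivalents HCl), oral gavage 10 mg/kg on day 3 (water with 0.2 M equivalents HCl). Arterial plasma sampled to 24 h (Mdr1a oral arm to 4 h). Analysed by LC-MS/MS and noncompartmental analysis.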

CC(=O)O[C@H]1C(=O)[C@@]2(C)[C@H]([C@H](OC(=O)c3ccccc3)[C@]3(O)C[C@H](OC(=O)[C@H](O)[C@@H](NC(=O)c4ccccc4)c4ccccc4)C(C)=C1C3(C)C)[C@]1(OC(C)=O)CO[C@@H]1C[C@@H]2O [PACLITAXEL]
half-life: 8.1 h

— ChEMBL document CHEMBL3526049 (Drug Metab Dispos, 2012)
